Laboratory results reported in US12383511B2, “Osteogenic agents and uses thereof” (GoldPorp Pharma Limited, priority 2022, dated 2025).

Tested on: MC3T3-E1 osteoblast
Assay: mRNA expression of osteogenesis-related molecules by real-time PCR
Format: cell-based
Settings: BMP2 30 ng/ml, ASC 400 μM + β-GP 5 mM, F1 5 μM, F4 5 μM, relative to DMSO control, normalized to GAPDH

Question: With “BMP2: Bone morphogenetic protein 2, prototypical osteoblastic differentiation agent” as the substance, how does the “AFT6 mRNA expression” value (D 2) read?
Answer: 1.7 fold

Question: And the “ALP mRNA expression” value (D 2)?
Answer: 4.2 fold

Question: And the “ATF3 mRNA expression” value (D 2)?
Answer: 0.8 fold

Question: What about the “Axin2 mRNA expression” value (D 2) of the same substance?
Answer: 1.9 fold

Question: What about the “BMP2 mRNA expression” value (D 2) of the same substance?
Answer: 2.7 fold

Question: And the “BMP7 mRNA expression” value (D 2)?
Answer: 2.8 fold

Question: And the “BSP mRNA expression” value (D 2)?
Answer: 2.1 fold

Question: What about the “COL1A1 mRNA expression” value (D 2) of the same substance?
Answer: 1.4 fold

Question: And the “Fzd1 mRNA expression” value (D 2)?
Answer: 6.3 fold

Question: What about the “Fzd2 mRNA expression” value (D 2) of the same substance?
Answer: 1.3 fold

Question: And the “Fzd5 mRNA expression” value (D 2)?
Answer: 1.9 fold

Question: What about the “LRP5 mRNA expression” value (D 2) of the same substance?
Answer: 1.0 fold

Question: And the “OCN mRNA expression” value (D 2)?
Answer: 13.2 fold

Question: And the “OPN mRNA expression” value (D 2)?
Answer: 0.8 fold

Question: And the “OSN mRNA expression” value (D 2)?
Answer: 1.5 fold

Question: What about the “OSX mRNA expression” value (D 2) of the same substance?
Answer: 3.1 fold

Question: And the “Runx2 mRNA expression” value (D 2)?
Answer: 3.0 fold

Question: And the “VDR mRNA expression” value (D 2)?
Answer: 1.4 fold

Question: And the “Wnt3A mRNA expression” value (D 2)?
Answer: 2.4 fold

Question: What about the “Wnt5A mRNA expression” value (D 2) of the same substance?
Answer: 1.6 fold

Question: What about the “Wnt7B mRNA expression” value (D 2) of the same substance?
Answer: 1.5 fold

Question: And the “Wnt11 mRNA expression” value (D 2)?
Answer: 3.0 fold

Question: And the “AFT6 mRNA expression” value (D 4)?
Answer: 2.1 fold

Question: And the “ALP mRNA expression” value (D 4)?
Answer: 2.6 fold

Question: And the “ATF3 mRNA expression” value (D 4)?
Answer: 0.7 fold

Question: And the “Axin2 mRNA expression” value (D 4)?
Answer: 3.3 fold

Question: What about the “BMP2 mRNA expression” value (D 4) of the same substance?
Answer: 0.9 fold

Question: What about the “BMP7 mRNA expression” value (D 4) of the same substance?
Answer: 1.4 fold

Question: And the “BSP mRNA expression” value (D 4)?
Answer: 2.0 fold

Question: What about the “COL1A1 mRNA expression” value (D 4) of the same substance?
Answer: 1.2 fold

Question: And the “Fzd1 mRNA expression” value (D 4)?
Answer: 4.4 fold

Question: And the “Fzd2 mRNA expression” value (D 4)?
Answer: 1.1 fold

Question: And the “Fzd5 mRNA expression” value (D 4)?
Answer: 1.4 fold

Question: And the “LRP5 mRNA expression” value (D 4)?
Answer: 0.9 fold

Question: What about the “OCN mRNA expression” value (D 4) of the same substance?
Answer: 4.8 fold

Question: And the “OPN mRNA expression” value (D 4)?
Answer: 1.0 fold

Question: And the “OSN mRNA expression” value (D 4)?
Answer: 1.9 fold

Question: And the “OSX mRNA expression” value (D 4)?
Answer: 1.9 fold

Question: What about the “Runx2 mRNA expression” value (D 4) of the same substance?
Answer: 2.0 fold

Question: And the “VDR mRNA expression” value (D 4)?
Answer: 1.3 fold

Question: What about the “Wnt3A mRNA expression” value (D 4) of the same substance?
Answer: 6.3 fold

Question: And the “Wnt5A mRNA expression” value (D 4)?
Answer: 1.0 fold

Question: What about the “Wnt7B mRNA expression” value (D 4) of the same substance?
Answer: 1.4 fold

Question: And the “Wnt11 mRNA expression” value (D 4)?
Answer: 1.9 fold
